Data taken from PubChem BioAssay AID540317 (National Center for Advancing Translational Sciences (NCATS), 2011).
The list shows a part of the results, in another mix than the full data. Records with an inconclusive call do not appear. Entries that show only a call come without a potency. Active and inactive are the calls of the source. The call rests on the fitted dose curve; in most records, active means well fitted inhibition curve with a large enough effect; inconclusive means small, poorly fitted or top-dose-only effect; inactive means no such curve, though single readings can be large or run the other way.

Chains of the proteins cited; added tags and fusions are not shown.
UniProt P83916, whole entry, looked up: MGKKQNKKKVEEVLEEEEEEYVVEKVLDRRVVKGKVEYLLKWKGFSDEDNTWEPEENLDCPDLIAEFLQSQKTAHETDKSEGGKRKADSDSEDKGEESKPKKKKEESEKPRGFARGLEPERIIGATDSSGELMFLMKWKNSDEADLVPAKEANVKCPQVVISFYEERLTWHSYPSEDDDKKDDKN

The molecules below were run against Chromobox protein homolog 1 (Homo sapiens) (UniProt P83916) (assay: HTS for Inhibitors of HP1-beta Chromodomain Interactions with Methylated Histone Tails). Conditions: AlphaScreen HP1-beta / biotin-H3K9me3 peptide binding; series mostly up to 114 µM.
Further: nearly all actives have a fitted effect of over 70% in size.
Potency means the concentration at half of the fitted maximal effect.

Compound	Potency
CN(C)C1(CNC(=O)c2ccc(S(C)(=O)=O)cc2)CCCCC1	inactive
O=C(/C=C/c1ccccc1)OC1CN2CCC1CC2 (configuration not stated)	inactive
CCCC1OP(=O)(Nc2ccccc2)OCC1CC (configuration not stated)	inactive
Cc1nn(-c2ccccc2)c2c1P(=O)(N1CCOCC1)N(C)C(c1ccccc1)=N2 (configuration not stated)	inactive
CC1CCC(C(C)C)C(OP(=O)(Nc2ccccn2)c2ccccc2)C1 (configuration not stated)	inactive
Cc1ccc(C(=O)OC2CN3CCC2CC3)cc1 (configuration not stated)	inactive
Nc1cccc([As](=O)(O)c2ccccc2)c1	inactive
Cc1ccc(OCC(=O)OC2CN3CCC2CC3)cc1 (configuration not stated)	inactive
O=[As](O)(c1cccs1)c1cccs1	inactive
O=P1(Nc2ccc(Br)cn2)COc2ccccc2OC1	inactive
NS(=O)(=O)c1cccc(NC(=O)COC(=O)C(O)(c2ccccc2)c2ccccc2)c1	inactive
O=P1(Nc2ncccn2)COc2ccccc2OC1	inactive
Clc1n[nH]nc1-c1nn[nH][15n]1	inactive
CC(C)(C)C(=O)NC(Sc1ncccn1)C(Cl)(Cl)Cl (configuration not stated)	inactive
O=P1(Nc2ccccn2)COc2ccccc2OC1	inactive
CCC1=CC2Cc3nc4ccc(Cl)cc4c(N)c3C(C1)C2 (configuration not stated)	inactive
CCOP(=O)(NC(=NC(C)c1ccccc1)NC(C)c1ccccc1)OCC (configuration not stated)	inactive
CCOP(=O)(Nc1ccc(C)cn1)OCC	inactive
CN(CCCl)Cc1cc(Cl)c(NC2=NCCN2)c(Cl)c1	inactive
CC(C)/C=N\N=C(\N)N[N+](=O)[O-]	inactive
CN(C(=O)Cc1ccc(Cl)c(Cl)c1)[C@@H]1CCCC[C@H]1N1CCCC1	inactive
CC1(CBr)Cn2c(nc3ccccc3c2=O)S1 (configuration not stated)	inactive
COc1ccccc1CNC(=O)COC(=O)C(O)(c1ccccc1)c1ccccc1	inactive
Cc1cccc(OCC(=O)OC2CN3CCC2CC3)c1 (configuration not stated)	inactive
O=[As](O)(c1cccc(O)c1)c1cccc(O)c1	inactive
O=C(OC1CN2CCC1CC2)c1ccc(Cl)cc1 (configuration not stated)	inactive

Compound	Potency
O=[As](O)(O)c1cccnc1	inactive
COc1cc(C(=O)NCC2(N3CCOCC3)CCCCC2)cc(Cl)c1OC(C)C	inactive
CS(=O)(=O)c1ccc(Cl)c(NC(=O)COC(=O)C(O)(c2ccccc2)c2ccccc2)c1	inactive
COc1cc(C2NCCC3(OCCO3)C2(C)C)cc(OC)c1OC (configuration not stated)	inactive
CCOP(=O)(Nc1cccc2ccccc12)OCC	inactive
Nc1cccc2c([As](=O)(O)O)cccc12	inactive
CCCOP(=S)(Nc1nc(N)cc(=O)[nH]1)OCCC	inactive
Nc1ccccc1[As](=O)(O)c1ccccc1	inactive
O=C(O)COc1ccc([As](=O)(O)O)cc1[N+](=O)[O-]	inactive
CCOP1(=S)c2c(C)nn(CCC#N)c2N=C(c2ccccc2F)N1C (configuration not stated)	inactive
O=P(Nc1nccs1)(Oc1ccccc1)Oc1ccccc1	inactive
O=P(Nc1nccs1)(c1ccccc1)c1nc2ccccc2s1 (configuration not stated)	inactive
CS(=O)(=O)c1cc([N+](=O)[O-])c2no[n+]([O-])c2c1	active: 8.91 µM
N#CCCN(C(=O)COC(=O)C(O)(c1ccccc1)c1ccccc1)c1ccc(F)cc1	inactive
CN(C(=O)Cc1ccccc1)[C@@H]1CC[C@]2(CCCO2)C[C@H]1N1CCCC1	inactive
CCOP1(=S)c2c(C)nn(CCC#N)c2N=C(c2ccc(F)cc2)N1C (configuration not stated)	inactive
O=[N+]([O-])c1ccc2c(c1)nnn2O	inactive
CN(C)C(=O)c1cc([N+](=O)[O-])cc2c1-c1c(cc([N+](=O)[O-])cc1[N+](=O)[O-])C2=O	inactive
CN(C(=O)Cc1ccc(Cl)c(Cl)c1)[C@H]1CC[C@@]2(CCCO2)C[C@@H]1N1CCCC1	inactive
NC(=O)Nc1ccc([As](=O)(O)O)cc1	inactive
Cc1ccc(OP(=O)(Nc2ccc([N+](=O)[O-])cn2)Oc2ccc(C)cc2)cc1	inactive
Cc1ccc2nc3c(c(C)c2c1)CC(C(Cl)Cl)S3 (configuration not stated)	inactive
C[As](=O)(O)c1cccc(C(=O)O)c1	inactive
O=[As](O)(c1ccc(O)cc1)c1ccccc1O	inactive
COc1cc(C(=O)NCC2(N3CCOCC3)CCCCC2)ccc1OCC(C)C	inactive
CC(C)NC(=O)NP(=O)(Oc1ccccc1)Oc1ccccc1	inactive

Compound	Potency
O=C(OC1CN2CCC1CC2)c1cccc2[nH]cnc12 (configuration not stated)	inactive
O=[N+]([O-])c1cc([N+](=O)[O-])c(-c2ccn[nH]2)s1	inactive
ClCCSc1nnc(-c2cccnc2)o1	inactive
COC(=O)C1(C)COP(=O)(N2CCCCCC2)OC1 (configuration not stated)	inactive
CC(C)c1ccc(OP(=O)(Nc2ccccn2)Oc2ccccc2F)cc1 (configuration not stated)	inactive
O=P1(N(CCCl)CCCl)OCCCN1CCCl (configuration not stated)	inactive
O=P1(N(CCCl)CCCl)Nc2ccccc2N1	inactive
COc1ccc2nc(NP(=O)(c3ccccc3)c3ccccc3)sc2c1	inactive
COc1cc(I)ccc1[As](=O)(O)O	inactive
Cc1c2c(nc3ccccc13)SC(C(Cl)Cl)C2 (configuration not stated)	inactive
O=C(OC1CN2CCC1CC2)C12CC3CC(CC(C3)C1)C2 (configuration not stated)	inactive
Cc1cc(=O)[nH]c(N[N+](=O)[O-])n1	inactive
COc1ccc(N/C(=N/P(=O)(N2CCOCC2)N2CCOCC2)N2CCOCC2)cc1	inactive
O=C(COc1ccccc1)OC1CN2CCC1CC2 (configuration not stated)	inactive
O=C(Nc1ccncc1[N+](=O)[O-])c1ccc([N+](=O)[O-])cc1[N+](=O)[O-]	inactive
COP1(=S)c2c(C)nn(CCC#N)c2N=C(c2ccc(F)cc2)N1C (configuration not stated)	inactive
CCC(C)N(CC(C)C)C(=S)SC(NC(C)=O)C(Cl)(Cl)Cl (configuration not stated)	inactive
CCOP(=O)(Nc1cccc2cccnc12)OCC	inactive
O=C(OC1CN2CCC1CC2)c1cccc([N+](=O)[O-])c1 (configuration not stated)	inactive
CCOC(=O)c1ccc(NC(=O)C(C)(CCl)SC)cc1 (configuration not stated)	inactive
CCCCOc1ccc(C(=O)NCC2(N3CCCCC3)CCCCC2)cc1OC	inactive
CCOC(=O)Nc1ccc([As](=O)(O)O)c(O)c1	inactive
CC1CCNP(=O)(N(CCCl)CCCl)O1 (configuration not stated)	inactive
O=P(Nc1ccccn1)(c1cccc2ccccc12)c1cccc2ccccc12	inactive
Cc1cc(SC(NC=O)C(Cl)(Cl)Cl)ncn1 (configuration not stated)	active: 17.8 µM
